Experiments:
[1] = RP-HPLC elution (% ACN) as measure of hydrophobicity; format: physicochemical; conditions: chromatographic hydrophobicity; gradient of 5–95% acetonitrile (ACN) over 45 minutes, C18 column, 0.2 mL/min; average of three replicates
E. coli ATCC 35218 [2] = test: Bacterial count by plating after 1-hour treatment, before SEM sample preparation; format: cell-based; conditions: 1 hour in PBS, control 5 × 10^5 CFU/mL
Method: E. coli was treated with 10 μM peptide or peptoid for 1 hour in phosphate-buffered saline (PBS). […] We used 10 μM peptide/peptoid for all samples since it is near the MICs of the majority of the oligomers.
Before fixation, aliquots of each samples were serially diluted and plated on agar to determine the concentration of live bacteria remaining after the 1-hour treatment. […] (1) SEM samples were treated in PBS (as discussed above), whereas MIC assays are performed in cation-adjusted Mueller-Hinton broth. AMPs and ampetoids are known to interact with ions in the media (for example, when switching from plain Mueller-Hinton broth to cation-adjusted Mueller-Hinton broth)[1], so differences in activity may be due to changes in media composition. (2) the treatments were for one hour only, whereas MICs are determined after 16 hours of growth. […] (3) Some of these compounds may cause inhibition of growth without causing bacterial cell death (i.e., they are bacteriostatic—which is what the MIC indicates—rather than bactericidal—which is determined by plating and counting colonies). […]
Overnight cultures of E. coli ATCC 35218 were centrifuged for 10 min and 2500 × g at room temperature, then resuspended in PBS. […] Bacterial concentrations of the diluted suspensions were calculated from their OD590 values using optical density curves derived from pre-determined concentrations. […]

E. coli ATCC 35218 [3] = test: Bacterial count by plating after treatment, before TEM sample preparation; format: cell-based; conditions: 1 hour in PBS pH 7.4, control 1 × 10^8 CFU/mL
EGFP-Luc plasmid = test: DNA retardation assay (gel electrophoresis); format: binding; conditions: EGFP-Luc plasmid in TBS, complexes 20 min at room temperature, 1–2% agarose gel
E. coli ATCC 35218 [4] = test: Membrane depolarization monitored by diSC3-5 fluorescence; format: cell-based; conditions: 5-min treatment, 0.2 mM EDTA
E. coli ATCC 35218 [5] = test: Transmission electron microscopy, lysis of bacteria; format: cell-based; conditions: concentrations as high as 2 mM (Supp. Fig. S3)
Text: The same cellular components were all visible in E. coli treated with peptoid 2 (Supp. Fig. S2A) in that no depletion of ribosomes, appearance of large, amorphous, electron-dense regions in the cytoplasm, abolition of DNA aggregation, or smoothing of the outer membrane was observed. […] All other compounds effected large changes in intracellular morphology (Fig. 4B–I), and many did so while leaving both inner and outer membranes apparently intact (Fig. 4C,G,H and Supp. Fig. S2B). These oligomers’ ability to cause cytoplasmic disruption without visibly degrading either membrane explains why no overall correlation was observed between permeabilization or dye leakage and antibacterial activity (Fig. 2, Table 1).
E. coli ATCC 35218, grown overnight at 35 °C in Mueller-Hinton broth (MHB), were resuspended in 1X (150 mM) PBS, pH 7.4, and diluted to a concentration of 1 × 10^8 CFU/mL. Aqueous peptide/peptoid stock solutions were added to 1 mL aliquots of the suspension to the desired final concentration. After 1 hour, small volumes of each sample were serially diluted, plated, and incubated overnight at 35 °C, to be counted the following day. The remaining volume of each sample was centrifuged, and the pellet resuspended and enrobed in 5–10 µL of 2% low-melting agarose (gelling temperature 25° ± 5 °C) then drawn up into the tip of a Pasteur pipette. […]

## C[C@H](NCC(=O)N(CC(=O)N(CCCCN)CC(=O)N(CC(=O)N(CC(=O)N(CCCCN)CC(=O)N(CC(=O)N(CC(=O)N(CCCCN)CC(=O)N(CC(=O)N(CC(=O)N(CCCCN)CC(=O)N(CC(=O)N(CC(=O)N(CCCCN)CC(=O)N(CC(=O)N(CC(N)=O)[C@@H](C)c1ccccc1)[C@@H](C)c1ccccc1)[C@@H](C)c1ccccc1)[C@@H](C)c1ccccc1)[C@@H](C)c1ccccc1)[C@@H](C)c1ccccc1)[C@@H](C)c1ccccc1)[C@@H](C)c1ccccc1)[C@@H](C)c1ccccc1)[C@@H](C)c1ccccc1)[C@@H](C)c1ccccc1)c1ccccc1 [1 17mer]
[1]
  % ACN at RP-HPLC elution: 70.1%
E. coli ATCC 35218 [2]
  SEM: Bacterial count after 10 µM treatment (% of control): 0.006 % of control
E. coli ATCC 35218 [3]; 10 µM
  TEM: Bacterial count after 10 µM treatment (% of control): 0.3 % of control
E. coli ATCC 35218 [3]; 100 µM
  TEM: Bacterial count after 100 µM treatment (% of control): 0 (0) % of control
EGFP-Luc plasmid
  Retardation assay: mass of compound required to completely retard migration of 1 µg of DNA: 9.0 µg
E. coli ATCC 35218 [4]
  Concentration causing maximal depolarization: 3 µM
E. coli ATCC 35218 [5]
  Lysis of the bacteria: not lytic

Reference: publication PMC5711933, “Intracellular biomass flocculation as a key mechanism of rapid bacterial killing by cationic, amphipathic antimicrobial peptides and peptoids” (Scientific Reports, 2017)
